# System: CD19+ B cells
# Experiment: Targeted binding of β-glucan and β-glucan-ERBITUX conjugate to CD19+ B cells in whole blood
# Design: species or system human
# Conditions: 10 μg/mL, 30 minutes at 37° C.
# Procedure: Whole blood was incubated with 10 μg/mL IMPRIME PGG, ERBITUX (Eli Lilly and Co., New York, N.Y. and Bristol-Myers Squibb Co., Princeton, N.J.), ERBITUX-IMPRIME PGG conjugate, or citrate buffer (as a control) for 30 minutes at 37° C. Cells were washed twice with PBS before staining with the β-glucan specific antibody BfD IV (U.S. Pat. No. 6,294,321). Cells were washed again and stained with an antibodies specific for human IgG to detect ERBITUX and CD19 to label B cells. Cells were analyzed on and LSRII flow cytometer and the groups were compared by gating on CD19^+ B cells.
substance,measurement,value
ERBITUX-IMPRIME PGG conjugate: ERBITUX conjugated to a β-glucan (IMPRIME PGG),anti-human IgG binding on CD19+ B cells,increase in anti-human IgG binding
same,β-glucan detected on CD19+ B cells with anti-β-glucan antibody BfD IV,positive for β-glucan

# — patent publication US9943607B2, “Beta-glucan compounds, compositions, and methods” (Biothera, Inc., priority 2011, dated 2018)
